The target in the experiment is T1, Multidrug and toxin extrusion protein 1 (Homo sapiens, UniProt Q96FL8).
T1 sequence (Q96FL8 whole entry): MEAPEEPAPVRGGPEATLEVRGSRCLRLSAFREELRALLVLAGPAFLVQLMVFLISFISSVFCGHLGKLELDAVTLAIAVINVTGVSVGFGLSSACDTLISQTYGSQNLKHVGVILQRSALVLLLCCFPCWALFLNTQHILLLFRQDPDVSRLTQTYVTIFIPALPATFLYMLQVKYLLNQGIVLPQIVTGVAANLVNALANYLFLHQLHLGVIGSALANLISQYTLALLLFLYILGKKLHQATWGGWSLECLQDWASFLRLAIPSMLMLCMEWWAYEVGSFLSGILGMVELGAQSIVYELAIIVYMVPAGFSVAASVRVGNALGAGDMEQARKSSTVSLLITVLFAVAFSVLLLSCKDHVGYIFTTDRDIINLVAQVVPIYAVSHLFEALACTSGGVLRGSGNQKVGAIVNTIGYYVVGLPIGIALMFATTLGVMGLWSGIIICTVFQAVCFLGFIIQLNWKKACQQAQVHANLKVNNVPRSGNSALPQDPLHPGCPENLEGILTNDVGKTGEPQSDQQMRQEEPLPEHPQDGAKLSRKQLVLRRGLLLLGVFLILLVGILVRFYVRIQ
The experiment in a line: Inhibition of human MATE1. The format is toxicity.

Regarding `CN/C(=N/CCSCc1nc[nH]c1C)NC#N` [CIMETIDINE], half-maximal inhibition (IC50) was put at 2200 nM.

As usually defined, the IC50 is the concentration at which inhibition is half-maximal.
